The source of these data is US20250302795A1, “SMALL MOLECULE COMPOUNDS WITH NEGATIVE REGULATORY EFFECTS ON Nrf2 SIGNALING PATHWAYS AND THEIR POTENTIAL APPLICATIONS” (Beijing Hebabiz Biotechnology Co., Inc., priority 2022, published 2025).

The subject of assay [1] is rats with nonalcoholic steatohepatitis induced by a high-fat diet and CCl4. As to the kind of experiment: Four indices of serum hepatic fibrosis, high-fat diet and CCl4 model. The assay is classed as in vivo, rat. As to conditions: positive control group. As for the experimental part:
(§1) Starting from the seventh week, they received subcutaneous injections of a 30% CCl4 olive oil solution at a dosage of 0.2 ml/100 g behind their back twice per week for a total of four times. Once the model was successfully replicated, the corresponding drugs were administered orally (10 ml/kg) in each treatment group, and both the normal control group and the model group received equal volumes of a 0.5% CMC-Na solution once daily for ten consecutive weeks. Throughout the experimental period, the rats were provided with ad libitum access to food and water, while the animal chamber was maintained under controlled conditions of quietness, natural lighting, a temperature of 25±0.5° C., and a humidity level of 55±5%. The rats' body weights were measured once per week and recorded.
At the end of the tenth week of administration, all rats underwent a 16-hour fasting period following their final administration and were intraperitoneally injected with a 20% ulinastatin solution (10 ml/kg) for anesthesia. Subsequently, blood samples were collected from the abdominal aorta and allowed to stand for one hour, and then centrifuged at 4° C. for fifteen minutes at a speed of 3000 r/min. […] Following the instructions provided with the biochemical index detection kit, levels of HDL-C, LDL-C, NEFA, AST, ALT, UA, TC, TG, PCIII, IV-C LN and HA in rat serum were determined.

For assay [2] the test system is unchanged. As to the kind of experiment: Serum biochemical indices, high-fat diet and CCl4 model. The assay is classed as in vivo, rat. The following applies: end of tenth week of administration, positive control group. On the procedure:
as §1
At the end of the tenth week of administration, all rats underwent a 16-hour fasting period following their final administration and were intraperitoneally injected with a 20% ulinastatin solution (10 ml/kg) for anesthesia. Subsequently, blood samples were collected from the abdominal aorta and allowed to stand for one hour, and then centrifuged at 4° C. for fifteen minutes at a speed of 3000 r/min. Finally, the upper serum was stored at −80° C. Following the instructions provided with the biochemical index detection kit, levels of HDL-C, LDL-C, NEFA, AST, ALT, UA, TC, TG, PCIII, IV-C LN and HA in rat serum were determined.
According to the kit instructions, the concentration of fasting plasma glucose (FPG) in serum was determined using colorimetry, while the concentration of fasting insulin (FINS) in serum was measured through radioimmunoassay.

In assay [1], `CC[C@H](C)C(=O)O[C@H]1C[C@@H](C)C=C2C=C[C@H](C)[C@H](CC[C@@H]3C[C@@H](O)CC(=O)O3)[C@H]21` [Lovastatin] registered an HA of 47.85 ± 19.06 µg/L and an LN of 117.50 ± 43.83 µg/L. Besides, in assay [2], the TC was 1.76 mmol/L, the TG is listed as 0.61 mmol/L and the UA was determined as 119 µmol/L.
